Results published in article PMC8347176, “Novel High Affinity Sigma-1 Receptor Ligands from Minimal Ensemble Docking-Based Virtual Screening” (International Journal of Molecular Sciences, 2021).
Where “and” joins values, the source holds several entries; their conditions need not be identical. Equal values may be shown once.

By UniProt entry, the sequences of proteins in these tests, tags left out. Where a name states a change or a piece, a line headed by the entry shows the natural chain unless it says otherwise.
UniProt Q60492, whole entry: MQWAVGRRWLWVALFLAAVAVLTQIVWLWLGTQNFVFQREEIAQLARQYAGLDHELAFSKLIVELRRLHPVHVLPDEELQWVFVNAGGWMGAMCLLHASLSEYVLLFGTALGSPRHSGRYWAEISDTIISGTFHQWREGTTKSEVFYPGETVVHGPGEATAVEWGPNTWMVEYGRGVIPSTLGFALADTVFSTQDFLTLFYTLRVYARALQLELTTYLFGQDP
UniProt Q5U3Y7, whole entry: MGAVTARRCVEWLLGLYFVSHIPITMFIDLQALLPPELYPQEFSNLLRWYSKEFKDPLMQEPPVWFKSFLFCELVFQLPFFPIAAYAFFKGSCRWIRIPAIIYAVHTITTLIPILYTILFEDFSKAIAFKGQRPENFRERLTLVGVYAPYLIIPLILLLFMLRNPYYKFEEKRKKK

What was measured:
sigma-1 receptor (S1R) = sigma-1 receptor (S1R) (Cavia porcellus, UniProt Q60492); assay: Sigma-1 receptor competitive radioligand binding assay with [3H](+)-pentazocine in guinea pig liver membranes; details: separated enantiomers; for Ki: read-out: S1R Ki ± S.E.M., guinea pig liver membranes, [3H](+)-pentazocine; for Selectivity (S2R/S1R): KiS2R/KiS1R
sigma-2 receptor (S2R) = sigma-2 receptor (S2R) (Rattus norvegicus, UniProt Q5U3Y7); assay: Sigma-2 receptor competitive radioligand binding assay with [3H]DTG in rat liver membranes, S1R masked with 100 nM (+)-pentazocine; details: read-out: S2R Ki ± S.E.M., separated enantiomers, 17 nM [3H]DTG, 100 nM (+)-pentazocine to mask S1R

Ki (sigma-1 receptor (S1R))	Selectivity (S2R/S1R) (sigma-1 receptor (S1R))	Ki (sigma-2 receptor (S2R))	Compound
58 nM	3	176 nM	COc1ccc(OC[C@H](O)CN2CCc3ccccc3C2)cc1
11 nM	15 and 15.4	169 nM	COc1cc2c(cc1OC)[C@H](CCNCc1ccccc1)NCC2
252 nM	–	94 nM	COc1cc2c(cc1OC)[C@@H](CCNCc1ccccc1)NCC2
132 nM	3.5	463 nM	COc1ccc(OC[C@@H](O)CN2CCc3ccccc3C2)cc1
81 nM	63	5110 nM	N[C@@H](CC(=O)NCc1cccc(C(F)(F)F)c1F)c1ccccc1
699 nM	1.3	920 nM	N[C@H](CC(=O)NCc1cccc(C(F)(F)F)c1F)c1ccccc1
